The data set relates to Nucleic Acid. As to the kind of experiment: Ratio of drug uptake in brain to plasma in rat. It is filed as ADME.

As for `CN1CC[C@]23c4c5ccc(O)c4O[C@H]2[C@@H](O)C=C[C@H]3[C@H]1C5` [MORPHINE], the Kp came to 0.54.

Source of the values: ChEMBL document CHEMBL3421561, “CNS drug design: balancing physicochemical properties for optimal brain exposure” (J Med Chem, 2015).
